Data taken from patent US20160303258A1, “COMPOUNDS AND COMPOSITIONS FOR IMAGING GCC-EXPRESSING CELLS” (MILLENNIUM PHARMACEUTICALS, INC., priority 2013, published 2016).
Values after ≈ are worked out from the molar mass of the structure shown. Read-outs that look alike come from different tables or passages of the source.

Amino acid sequences for entries named in this document (tags omitted). Residues count along the entry.
UniProt P25092, 24-1073: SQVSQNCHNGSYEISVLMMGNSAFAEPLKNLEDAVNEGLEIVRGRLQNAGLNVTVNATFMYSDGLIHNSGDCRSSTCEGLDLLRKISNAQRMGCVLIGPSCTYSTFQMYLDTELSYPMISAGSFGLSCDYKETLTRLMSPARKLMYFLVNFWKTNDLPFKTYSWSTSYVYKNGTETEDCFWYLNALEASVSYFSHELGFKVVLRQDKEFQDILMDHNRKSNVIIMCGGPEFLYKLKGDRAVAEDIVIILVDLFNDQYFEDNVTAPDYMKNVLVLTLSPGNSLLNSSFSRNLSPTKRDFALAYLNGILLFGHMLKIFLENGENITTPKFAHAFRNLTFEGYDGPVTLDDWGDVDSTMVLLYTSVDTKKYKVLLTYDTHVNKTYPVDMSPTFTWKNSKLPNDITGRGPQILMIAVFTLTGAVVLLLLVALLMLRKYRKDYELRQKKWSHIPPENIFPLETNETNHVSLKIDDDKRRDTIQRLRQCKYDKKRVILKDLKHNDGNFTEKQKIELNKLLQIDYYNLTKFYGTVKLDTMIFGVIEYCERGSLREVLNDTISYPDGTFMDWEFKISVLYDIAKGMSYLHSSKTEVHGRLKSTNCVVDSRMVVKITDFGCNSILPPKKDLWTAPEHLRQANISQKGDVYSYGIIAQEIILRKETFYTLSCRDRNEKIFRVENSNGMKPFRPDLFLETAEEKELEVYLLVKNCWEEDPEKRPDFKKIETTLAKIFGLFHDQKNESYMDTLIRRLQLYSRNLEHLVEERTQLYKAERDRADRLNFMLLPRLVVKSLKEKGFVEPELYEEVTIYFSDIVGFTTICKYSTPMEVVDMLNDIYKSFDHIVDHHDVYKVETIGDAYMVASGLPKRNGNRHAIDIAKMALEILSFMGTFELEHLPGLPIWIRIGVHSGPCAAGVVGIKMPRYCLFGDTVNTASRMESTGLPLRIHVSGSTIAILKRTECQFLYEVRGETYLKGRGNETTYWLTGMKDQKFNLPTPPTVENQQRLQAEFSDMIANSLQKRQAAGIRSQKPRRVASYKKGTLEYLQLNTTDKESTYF

Legend:
[1] = GLP-compliant 2-week repeat-dose toxicology study in monkeys; assay type: in vivo, cynomolgus monkeys
Description: (§1) MLN6907 DSP had no effect on central nervous system (CNS), cardiovascular (CV), or respiratory safety pharmacology endpoints evaluated in the GLP-compliant, 2-week, repeat-dose toxicology studies in Sprague-Dawley rats and cynomolgus monkeys.
(§2) The toxicology studies with MLN6907 DSP were designed to address the target tissues for toxicity, the dose-limiting toxicity, noninvasive methods for monitoring of clinically relevant toxicities, and the reversibility of adverse effects. Both rats and monkeys are pharmacologically responsive to the effects of the STp(5-18) peptide portion of MLN6907.
(§3) These studies support that, as a result of anatomic privilege, the normal intestine will not be a target for [68Ga]MLN6907 DP. In both studies, the no-observed-effect level (NOEL) was 0.25 mg/kg.
(§4) Toxicokinetics (TK) and immunogenicity of the MLN6907 DSP were evaluated as part of the GLP-compliant, 2-week, repeat-dose toxicology studies. There were no marked sex-related differences in exposure to MLN6907 DSP in Sprague-Dawley rats or cynomolgus monkeys. […] The immunogenicity of the peptide component of MLN6907 was assessed by measuring rat and monkey antipeptide antibodies (rodent antipeptide antibody [RAPA] and primate antipeptide antibody [PAPA]). Briefly, antipeptide antibodies were detecting using FITC-STa and biotinylated-STa combined to capture anti-STa antibodies, then incubated and washed, followed by detection of the bound antibody with Streptavidin-Sulfo tag.
(§5) Local tolerance of decayed nonradioactive [^68Ga]MLN6907 DP and MLN6907 DSP was evaluated using an in vitro hemolysis assay and as part of the GLP-compliant 2-week, repeat-dose toxicology studies, respectively.

Solubility of bulk DSP1 = assay type: physicochemical
Experimental: Bulk DSP1 has a low solubility of about 0.1 mg/ml, and an aqueous solution formulation was developed. This aqueous formulation is referred to as DSP2. Solubility could be increased in several ways. […] This can be seen in FIG. 3A, where increasing the ethanol concentration increases solubility of DSP1. Ethanol can also enhance labeling efficiency. […] However, this advantage in solubility is offset by the decrease in labeling efficiency at higher pHs, as shown in the following section. Third, heat and mechanical mixing improved solubility.

GCC [2] = molecular target: T1, GCC (Homo sapiens, UniProt P25092); test: In vitro competitive binding assay, displacement of [111In]MLN6907 in HEK-293 GCC Clone 2 cells; design: expressed in transfected cells; host or cells: HEK-293 GCC Clone 2 (GCC-expressing HEK-293 cells)
Experimental: In an in vitro competitive binding assay to evaluate the effects of the ^68GaCl3 chelation reaction labeling conditions (mixing with acetone: HCl [98:2] and heating at approximately 100° C. for 10 minutes) on [^68Ga]MLN6907 DP (drug product) GCC affinity. […] The competition for binding to the ligand (GCC) and concomitant percentage displacement of radiolabeled [^111In]MLN6907 after the addition of increasing concentrations (8.5×10^−6 to 500 nM) of cold peptide (untreated or treated MLN6907 DSP) was calculated by measuring the final radioactivity in the cells using a gamma counter. […] The difference in affinity between untreated and treated MLN6907 DSP was not significant (p>0.05).

[3] = GLP-compliant 2-week repeat-dose toxicology study in rats; assay type: in vivo, Sprague-Dawley rats
Description: as §1, §2, §3, §4, §5

GCC [4] = molecular target: T1, GCC; test: In vivo competitive binding and biodistribution in tumor xenograft models; design: endogenous in cells; species or system mice
Description: Female CB-17 severe combined immunodeficient (SCID) mice bearing cell line or primary tumor derived xenografts were used to assess competitive binding and biodistribution of [^68Ga]MLN6907 DP in vivo. Four xenograft models that express different levels of GCC were used. Two models were derived from cell lines: HEK-293 GCC Clone 2 (human embryonic kidney) and T84 (colon carcinoma), and two models were primary colon adenocarcinoma human tumor models: PHTX-21C and PHTX-17C. In the mice, tumor cells or fragments and tumors were allowed to grow until reaching a volume of 200 to 700 mm^3. GCC expression level, previously determined by IHC using a scoring system of 0-300 (H-score [apical and cytoplasmic]) to indicate GCC concentration in a separate set of tumor samples, as 300 and 270, 0 and 300, and 40 and 50 for T84, HEK-293 GCC Clone 2, and PHTX-17C, respectively. Mice were then administered a single IV dose of [68Ga]MLN6907 DP (0.01, 0.02, 0.15, or 0.2 μg) with increasing concentrations of MLN6907 DSP (0, 1.8, 1.85, or 20 μg). Tumor, blood, liver, and kidneys were collected at 1 hour postdose and assayed for ^68Ga activity using a gamma counter; uptake and biodistribution of [^68Ga]MLN6907 DP was determined as the % ID/g.
The addition of MLN6907 DSP had no major effect on [^68Ga]MLN6907 DP uptake in non-GCC-expressing tissues (blood, liver, and kidney). […]

[5] = Blood pharmacokinetics in mouse model; assay type: in vivo; settings: intravenous; mouse model, blood clearance through renal excretion; read-out: t1/2 in blood
Experimental: FIG. 15. […] The y axis is the injected dose (% ID) per gram of tissue. In all three systems tested, blood clearance of the compound is rapid.
The KD of MLN6907 for cell-surface GCC was calculated using an in vitro competitive binding assay with HEK-293 GCC clone 2 cells (FIG. 13). Antigen surface density of GCC on HEK-293 GCC clone 2 cells was estimated in vitro by Western blotting, and in vivo in the mouse model (FIG. 16). Decreased [68Ga]MLN6907 uptake in the tumor results from GCC receptor competition from added unlabeled peptide. […] The tumor uptake of [^68Ga]MLN6907 differed in tumors with varying levels of GCC expression and phenotype and is reflected in the initial in vivo calculated Bmax values.

[6] = Pharmacokinetics and ex vivo biodistribution of 225Ac-labeled peptide in naive CB-17 SCID mice
Experimental: This study assays the pharmacokinetics and ex vivo biodistribution of Actinium-225 labeled STp(5-18) peptide, along with the daughter nuclides, in naïve CB-17 SCID mice.
All naïve mice were randomized into n=4×3 groups. All mice were administered 100 uL of formulated 225Ac-DOTA-Ahx-STp(5-18), IV, within 45 minutes of purification (100 uL=444598 CPM counted on the 225Ac window of the gamma counter). A subset of animals from each group was sacrificed at each of the following time points post injection: 0.5, 1, 4, and 24 hours. The following tissues were resected for weight and gamma counting from each carcass: blood, heart, kidney, liver, lungs, spleen, small intestine, large intestine, stomach. The ^225Ac content was determined at least 4 h after collection, to allow for ^213Bi/^225Ac equilibrium. To analyze daughter activities, the counter was calibrated and windows were set to collect gamma events from ^221Fr (g, 218 keV) for actinium quantitation and ^213Bi (g, 440 keV). Samples were counted within 20-50 min post-harvest and again after 213Bi/225Ac equilibrium had been reached (>4 h).
The gamma count runs were acquired according to the procedure described by Song et al. Specifically, samples were measured at three times immediately following sacrifice (˜30, 45, 60 minutes) in ^221Fr and ^213Bi windows and again at equilibrium (24 h post-sacrifice).
Data, including weight, time point, injection times, sacrifice times, subject ID, tissue, and CPM were read in automatically from the equilibrium ^225Ac spreadsheet. […] Percent injected dose per gram was computed as
Data, including weight, time point, injection times, sacrifice times, subject ID, tissue, and CPM were read in automatically from the ^213Bi and ^221Fr spreadsheets, including CPM measurements for three time points immediately following sacrifice (˜30, 45, 60 minutes post-injection). […] This CPM_0 was compared to the measured CPM at equilibrium decay-corrected to time-of-sacrifice (CPM_eq) both in terms of absolute difference and ratio. […]

CC(C)C[C@@H]1NC(=O)[C@H](CCC(=O)O)NC(=O)[C@@H]2CSSC[C@@H]3NC(=O)[C@H](C)NC(=O)[C@@H]4CCCN4C(=O)[C@H](CC(N)=O)NC(=O)[C@H](CSSC[C@H](NC(=O)CCCCCNC(=S)Nc4ccc(C[C@H]5CN(CC(=O)O)CCN(CC(=O)O)CCN(CC(=O)O)CCN5CC(=O)O)cc4)C(=O)N2)NC(=O)[C@H](CSSC[C@@H](C(=O)N[C@@H](Cc2ccc(O)cc2)C(=O)O)NC(=O)CNC(=O)[C@H](C)NC3=O)NC1=O [MLN6907 DSP]
no-observed-effect level (NOEL) [1]: 0.25 mg/kg
CNS, cardiovascular or respiratory safety pharmacology endpoints ([1]; 2-week repeat-dose): no effect
immunogenicity, primate antipeptide antibody (PAPA) ([1]; any dose): no immunogenicity response
local tolerance, injection site findings ([1]; dose formulations up to 0.10 mg/mL): nor were there any injection site findings
toxicity findings ([1]; doses up to 0.25 mg/kg IV Days 1, 4, 8, 11, 14, 14-day recovery): no findings indicative of toxicity
accumulation in the plasma ([1]; toxicokinetics): no marked accumulation
increase in solubility (Solubility of bulk DSP1; addition of ethanol (range of 5-25%)): up to 10 fold
solubility (Solubility of bulk DSP1; bulk DSP1): ~100 µg/mL (≈ 47.4 µM)
increase in solubility (Solubility of bulk DSP1; heating 60° for 10 minutes, or shaking 45 minutes at room temperature): 5 to 7 fold
increase in solubility (Solubility of bulk DSP1; increasing the pH of the solvent from 3.5 to 5): about 19 fold
solubility (Solubility of bulk DSP1; pH 5, after increasing pH from 3.5 to 5): > 1000 µg/mL
IC50 (GCC [2]): 4.75 nM
IC50 (GCC [2]; IC50, inhibition of [111In]MLN6907 binding, untreated MLN6907 DSP (without chelation reaction conditions), HEK-293 GCC Clone 2 cells): 4.59 nM
allowable phase 1 clinical starting mass dose ([3]; human equivalent dose of one-tenth of the rat NOEL (0.25 mg/kg)): 282 µg
no-observed-effect level (NOEL) ([3]; rats): 0.25 mg/kg
CNS, cardiovascular or respiratory safety pharmacology endpoints ([3]; rats, 2-week repeat-dose): no effect
immunogenicity, rodent antipeptide antibody (RAPA) ([3]; rats, any dose): no immunogenicity response
local tolerance, injection site findings ([3]; rats, dose formulations up to 0.10 mg/mL): nor were there any injection site findings
toxicity findings ([3]; rats, doses up to 0.25 mg/kg IV Days 1, 4, 8, 11, 14, 14-day recovery): no findings indicative of toxicity
accumulation in the plasma ([3]; rats, toxicokinetics): no marked accumulation
margin of allowable starting dose over proposed human mass dose ([3]; vs proposed human mass dose range of up to 43.4 μg on a mg/kg basis): greater than 67 fold
EC50 (GCC [4]): 97.1 to 5660 nM
half-life [5]: 26 min

CC(C)C[C@@H]1NC(=O)[C@H](CCC(=O)O)NC(=O)[C@@H]2CSSC[C@@H]3NC(=O)[C@H](C)NC(=O)[C@@H]4CCCN4C(=O)[C@H](CC(N)=O)NC(=O)[C@H](CSSC[C@H](NC(=O)CCCCCNC(=S)Nc4ccc(C[C@H]5CN(CC(=O)O)CCN(CC(=O)O)CCN(CC(=O)O)CCN5CC(=O)O)cc4)C(=O)N2)NC(=O)[C@H](CSSC[C@@H](C(=O)N[C@@H](Cc2ccc(O)cc2)C(=O)O)NC(=O)CNC(=O)[C@H](C)NC3=O)NC1=O [^225Ac-DOTA-Ahx-STp(5-18), metal not drawn]
accumulation of the 221Fr or 213Bi daughter decay products ([6]; any of the tissues except kidney): substantially no accumulation
accumulation in the other tissues measured ([6]; naive CB-17 SCID mice, IV): no substantial accumulation
uptake in the kidney ([6]; naive CB-17 SCID mice, IV): high uptake
